Reference: patent US7271146B2, “Methods for treatment of Helicobacter pylori-associated disorders” (Vecta Ltd., priority 2002, dated 2007)

Experiments:
[1] = pH-dependent solubility of PG; format: physicochemical; conditions: FIG. 9A
Excerpt: A major factor for the success of oral administration of PG is the optimization of delivery under the conditions that prevail in the gastric milieu. Shown in FIG. 9A are the results of the solubility of pentagastrin under various pH conditions. The results are represented in correlation to a gradient of relevant metabolic pH values within the gastric milieu, including values that are expected to occur following PPI treatment.

[2] = HCL-dependent degradation of PG without pepsin; format: physicochemical; conditions: pH 1.2 and 3.5, 37° C., absence of pepsin; FIG. 9B
Description: To test the effect of enzymatic degradation, the HCL-dependent degradation of PG without pepsin was tested at pH 1.2 and 3.5, at 37° C. […] The main product of degradation (>80% of all products) corresponds to the standard of pentapeptide without BOC (RT=8.83). Such a fragment will still be active in the eradication of H. pylori.

## βAla-Trp-Met-Asp-PheNH2 [PG]
[1]
  solubility with escalating pH values: marked increase
[1]; pH 1.2 with NaCl
  solubility (lowest level): 40 ppm
[2]
  maximum loss of pentagastrin: 40%
